Test results published in article PMC11145868, “Protein target similarity is positive predictor of in vitro antipathogenic activity: a drug repurposing strategy for Plasmodium falciparum” (Journal of Cheminformatics, 2024).

Assay: in vitro
Settings: human

## COc1ccc(C[C@H]2NC[C@H](O)[C@H]2OC(C)=O)cc1 [Anisomycin]
  CC50: 82 nM
